Results taken from PubChem BioAssay AID1259422 (The Scripps Research Institute Molecular Screening Center, 2018).
This is a selection; strong and weak results do not stand in their true shares. Some salts and complexes are drawn in separate pieces, as the source files them; their charges need not balance. The source made the active and inactive calls. Cut-off read from the data, not from the text of the source: active = inhibition above about 32%; inactive = the rest.

assay: TEAD-YAP interaction inhibition, primary screen, TEAD-YAP interaction inhibitor project, luminescence, HEK-TIYL cells (AID 1259422); conditions: TEAD-Gal4/YAP UAS-luciferase luminescence, at 9.12 µM, stronger effect = higher value;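 note: 0% = median of test compound wells and 100% = reference inhibitor wells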

Structure (SMILES) | inhibition
O=C(Nc1ccccc1O)c1c([N+](=O)[O-])cc([N+](=O)[O-])cc1[N+](=O)[O-] | inactive: 3.98%
CN1CCCC1=C1c2cc([N+](=O)[O-])cc([N+](=O)[O-])c2-c2c1cc([N+](=O)[O-])cc2[N+](=O)[O-] | inactive: 5.45%
CCc1ccc(OP(C)(=O)Nc2ccc(I)cc2)cc1 (stereo not given) | inactive: 2.57%
COc1ccc(OP(C)(=O)Nc2ccc(Br)cc2)cc1 (stereo not given) | inactive: 5.75%
O=[N+]([O-])c1cc([N+](=O)[O-])c(NCc2ccccc2)c([N+](=O)[O-])c1 | inactive: -7.78%
COc1ccccc1OP(C)(=O)Nc1c(C)n(C)n(-c2ccccc2)c1=O (stereo not given) | inactive: 20.6%
OCCSCCO | inactive: 6.15%
CP(=O)(Oc1ccccc1)N1CCOC1=O (stereo not given) | inactive: 6.84%
O=[N+]([O-])c1cc([N+](=O)[O-])c(N2CCOCC2)c([N+](=O)[O-])c1 | inactive: 7.31%
[O-][n+]1onc2c1c1no[n+]([O-])c1c1no[n+]([O-])c21 | inactive: -14.8%
Cc1c([N+](=O)[O-])cc([N+](=O)[O-])c(Nc2ccc(C(=O)O)cc2)c1[N+](=O)[O-] | inactive: 2.76%
COc1cccc(C(OP(C)(=O)O)C(F)(F)F)c1 (stereo not given) | inactive: -8.12%
CP(=O)(Nc1ccc(Cl)cc1)Oc1ccc(F)cc1 (stereo not given) | inactive: 5.24%
CN(C)/C=C(\C=O)c1c([N+](=O)[O-])cc([N+](=O)[O-])cc1[N+](=O)[O-] | inactive: 1.48%
CN(C)C(=O)c1c([N+](=O)[O-])cc([N+](=O)[O-])cc1[N+](=O)[O-] | inactive: 4.06%
O=[N+]([O-])c1cc([N+](=O)[O-])c(Nc2ccccc2CO)c([N+](=O)[O-])c1 | inactive: 4.66%
CP(=O)(Nc1ccc(F)c(Cl)c1)Oc1ccccc1 (stereo not given) | inactive: 2.96%
CC(C)c1ccc(OP(C)(=O)O)cc1 | inactive: 2.86%
NNc1c([N+](=O)[O-])cc([N+](=O)[O-])cc1[N+](=O)[O-] | inactive: -11.1%
Nc1nonc1-[n+]1nc2nonc2[n-]1 | inactive: 13.7%
CP(=O)(Nc1cccc(Cl)c1)Nc1cccc(Cl)c1 | inactive: 0.18%
CCOC(=O)c1ccc(NP(C)(=O)Oc2ccc(Cl)cc2)cc1 (stereo not given) | inactive: -11%

Structure (SMILES) | inhibition
CP(=O)(OC12CC3CC(CC(C3)C1)C2)OC12CC3CC(CC(C3)C1)C2 | inactive: 3.41%
O=[N+]([O-])c1cc([N+](=O)[O-])c(Nc2ccccc2)c([N+](=O)[O-])c1 | inactive: -1.05%
N1=Nc2nonc2N=Nc2nonc21 | inactive: 9.59%
C/C1=C2N=C(/C=C3N=C(/C(C)=C4\[N-]C(C(CC(N)=O)C4(C)CCC(=O)NCC(C)OP(=O)([O-])OC4C(CO)OC(n5cnc6cc(C)c(C)cc65)C4O)C4(C)N=C1C(CCC(N)=O)C4(C)CC(N)=O)C(CCC(N)=O)C\3(C)C)C(CCC(N)=O)C/2(C)CC(N)=O.C/C1=C2N=C(/C=C3N=C(/C(C)=C4\[N-]C(C(CC(N)=O)C4(C)CCC(=O)NCC(C)OP(=O)([O-])OC4C(CO)OC(n5cnc6cc(C)c(C)cc65)C4O)C4(C)N=C1C(CCC(N)=O)C4(C)CC(N)=O)C(CCC(N)=O)C\3(C)C)C(CCC(N)=O)C/2(C)CC(N)=O.[C-]#N.[Co+3] (stereo not given) | inactive: 27.6%
CN(c1nc2nonc2nc1N(C)[N+](=O)[O-])[N+](=O)[O-] | inactive: 4.98%
CCCCOc1ccc(NP(C)(=O)Oc2ccccc2OC)cc1 (stereo not given) | inactive: -0.3%
COc1ccccc1OP(C)(=O)Nc1ccc(C)c(C)c1 (stereo not given) | inactive: 4.2%
COc1ccc(OP(C)(=O)Nc2ccccc2Br)cc1 (stereo not given) | inactive: 1.8%
Cc1cccc(C)c1OP(C)(=O)Nc1ccccc1 (stereo not given) | inactive: 5.91%
COCC(CN(C)[N+](=O)[O-])O[N+](=O)[O-] (stereo not given) | inactive: -17.6%
O=[N+]([O-])c1cc([N+](=O)[O-])c(N2CCCCCC2)c([N+](=O)[O-])c1 | inactive: 3.81%
CP(=O)(OCCOc1ccccc1)OCCOc1ccccc1 | inactive: -7.91%
CP(=O)(Nc1ccc(Cl)cc1Cl)Oc1ccccc1 (stereo not given) | inactive: -0.42%
CN(C)c1c([N+](=O)[O-])cc([N+](=O)[O-])c(N(C)C)c1[N+](=O)[O-] | inactive: 18.8%
NC(=O)c1c([N+](=O)[O-])cc([N+](=O)[O-])cc1[N+](=O)[O-] | inactive: -3.8%
COc1ccccc1OP(C)(=O)Nc1ccc(Br)cc1 (stereo not given) | inactive: -1.54%
COc1ccc(OP(C)(=O)Nc2ccccn2)cc1 (stereo not given) | inactive: -4.29%
CCN(CC)CCOC(=O)C(O)(c1ccccc1)C1CCCCC1 (stereo not given) | inactive: 9.57%
CN(C)CCOC(=O)C(O)(c1ccccc1)C1CCCC1 (stereo not given) | inactive: 6.76%
Nc1c([N+](=O)[O-])cc([N+](=O)[O-])c(Nc2ccccc2C(=O)O)c1[N+](=O)[O-] | inactive: 11.8%
O=[N+]([O-])c1cc([N+](=O)[O-])c(Nc2ccccn2)c([N+](=O)[O-])c1 | inactive: 13.8%
CCOP(C)(=S)SCN(CC(=O)O)C(=O)OCc1ccccc1 (stereo not given) | inactive: -4.38%

Structure (SMILES) | inhibition
Cc1c(NP(C)(=O)Oc2ccc(C(C)C)cc2)c(=O)n(-c2ccccc2)n1C (stereo not given) | inactive: 0.86%
CP(=O)(Nc1ccc(F)cc1)Oc1ccc(Cl)cc1 (stereo not given) | inactive: -0.76%
CC(CN(C)C)OC(=O)C(O)(c1ccccc1)c1ccccc1 (stereo not given) | inactive: 7.97%
CCP1(=O)Oc2cc(C(C)(C)C)cc(C(C)(C)C)c2O1 (stereo not given) | inactive: 0.9%
Nc1c([N+](=O)[O-])cc([N+](=O)[O-])c2nonc12 | inactive: 14.8%
C=CCNc1c([N+](=O)[O-])cc([N+](=O)[O-])c(C)c1[N+](=O)[O-] | inactive: -3.4%
CP(=O)(Nc1ccccc1F)Oc1ccccc1 (stereo not given) | inactive: -6.88%
O=C(OCCN1CCN(CCOCc2ccccc2)CC1)C(O)(c1ccccc1)c1ccccc1 | inactive: 4.76%
CP(=O)(Nc1cccnc1)Oc1ccc(Cl)cc1 (stereo not given) | inactive: 4.36%
Cc1cc([N+](=O)[O-])c(NCC(C)([N+](=O)[O-])[N+](=O)[O-])c([N+](=O)[O-])c1[N+](=O)[O-] | inactive: 4.58%
O=C(c1c([N+](=O)[O-])cc([N+](=O)[O-])cc1[N+](=O)[O-])N1CCOCC1 | inactive: -8.96%
CCOC(=O)c1ccc(NP(C)(=O)Oc2ccc(F)cc2)cc1 (stereo not given) | inactive: 2.51%
Cc1ccc(Cl)c(OP(C)(=O)Nc2cccnc2)c1 (stereo not given) | inactive: -0.21%
CP(=O)(O)OC(c1ccccc1)C(Cl)(Cl)Cl (stereo not given) | inactive: 1.06%
Cc1ccc(NP(C)(=O)Oc2ccc(Cl)cc2)cc1 (stereo not given) | inactive: 15.6%
COc1cc2c(cc1NP(C)(=O)Oc1ccccc1)oc1ccccc12 (stereo not given) | inactive: -2.23%
CP(=O)(Nc1ccccc1)Oc1ccc(F)cc1 (stereo not given) | inactive: 3.74%
C=CCN1CCN(CCOC(=O)C(O)(c2ccccc2)c2ccccc2)CC1 | inactive: 0.64%
O=[N+]([O-])c1ccc(Nc2c([N+](=O)[O-])cc([N+](=O)[O-])cc2[N+](=O)[O-])cc1 | active: 88.9%
CN(C)CCOC(=O)C(O)(c1ccccc1)C1CCCCC1 (stereo not given) | inactive: 0.89%
O=[N+]([O-])c1cc([N+](=O)[O-])c(Nc2c([N+](=O)[O-])cc([N+](=O)[O-])cc2[N+](=O)[O-])c([N+](=O)[O-])c1 | inactive: 12.4%
CC(=O)OC1(C#N)CN2CCC1CC2 (stereo not given) | inactive: -1.22%

Structure (SMILES) | inhibition
COc1ccc(NP(C)(=O)Oc2ccccc2OC)cc1 (stereo not given) | inactive: 1.39%
O=[N+]([O-])c1cc([N+](=O)[O-])c(NCC2CCS(=O)(=O)C2)c([N+](=O)[O-])c1 (stereo not given) | inactive: 1.51%
Cc1cc(-c2cccc3ccccc23)c(C)cn1.O=[N+]([O-])c1cc([N+](=O)[O-])c(O)c([N+](=O)[O-])c1 | inactive: 3.41%
CP(=O)(O)Oc1cccc(Cl)c1Cl | inactive: -5.35%
COc1ccc(OP(C)(=O)Nc2ccccc2)cc1 (stereo not given) | inactive: 2.33%
[N-]=[N+]=NCN1c2nonc2N(CN=[N+]=[N-])c2nonc21 | inactive: -2.65%
Cc1c([N+](=O)[O-])c(C)c([N+](=O)[O-])c(C)c1[N+](=O)[O-] | inactive: 8.21%
Cc1ccc(Cl)c(OP(C)(=O)Nc2ccc(F)cc2)c1 (stereo not given) | inactive: 4.86%
CP(=O)(O)OC(c1ccccc1)C(F)(F)C(F)(F)F (stereo not given) | inactive: 1.34%
COC(=O)Nc1nc2ccccc2[nH]1.O=C1CCCN1c1ccc(S(=O)(=O)O)cc1[N+](=O)[O-] | inactive: 25.2%
CCN(CC)c1c([N+](=O)[O-])cc([N+](=O)[O-])cc1[N+](=O)[O-] | inactive: -1.28%
CP(=O)(Nc1ccc2c(c1)OCCO2)Oc1ccccc1 (stereo not given) | inactive: 8.37%
Cc1ccccc1NP(C)(=O)Nc1ccccc1C | inactive: 0.86%
CP(=O)(O)OC(c1ccccc1)C(Cl)(Cl)C(F)(F)F (stereo not given) | inactive: -10.7%
Nc1nonc1-c1no[n+]([O-])c1-c1nonc1N | inactive: 30.6%
CCN(CC)C(=O)c1c([N+](=O)[O-])cc([N+](=O)[O-])cc1[N+](=O)[O-] | inactive: 19.3%
COc1ccc(NP(C)(=O)Oc2ccc(Cl)cc2)cc1 (stereo not given) | inactive: -2.45%
Cc1cc(-c2nc3ccccc3[nH]2)c2ccccc2n1.O=[N+]([O-])c1cc([N+](=O)[O-])c(O)c([N+](=O)[O-])c1 | inactive: 6.44%
CN(C)/N=C/c1ccc(-c2c([N+](=O)[O-])cc([N+](=O)[O-])cc2[N+](=O)[O-])o1 | inactive: 5.07%
